# ALDH1A1 inh: inhibitors of human aldehyde dehydrogenase 1A1. P00352. Purified ALDH1A1, NADH fluorescence, propionaldehyde substrate. Potency, µM (top dose mostly 75.3 µM), without a hit: at the top dose activity, negative = inhibition, most hits filed as inhibitors. 220,000 tested, 7.3% active. AID 1030; active = well fitted inhibition curve with a large enough effect, not every such curve was filed as active; inconclusive = small, poorly fitted or top-dose-only effect, or another doubt; inactive = no such curve, though single readings can be large or run the other way;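 note: potency is the fitted concentration of half-maximal effect; plate controls were no enzyme wells and a reference inhibitor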
# G9a block: inhibitors of human histone lysine methyltransferase G9a. Q96KQ7. G9a H3K9 monomethylation, AlphaScreen, 2 h. Potency, µM (highest dose often 102 µM), without a hit: top-dose activity, negative = inhibition, hits mostly inhibitors. 350,000 tested, 8.8% active; note: potency is the fitted concentration of half-maximal effect; % is set by controls: 0 for no effect and ±100 for the full control effect; nearly all actives have a fitted effect of over 75% in size
#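 Chemiluminescent proximity detection of H3K9 monomethylation, read after 10 min bead incubation in the dark. Reaction: 20 nM G9a, 500 nM biotin-H3K9 peptide, 20 uM SAM cofactor, 2 h, room temperature, following 15 min enzyme-compound preincubation.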
# Lamin A splicing: modulators of lamin A splicing; Potency, µM (doses to about 46.1 µM), for the others: at the top dose ratio change, negative = inhibition, actives largely listed as inhibitors; 200,000 tested, 0.01% active; AID 1487; HeLa LMNA splicing GFP/RFP minigene ratio, 48 h; active = well fitted inhibition curve with a large enough effect in the signal ratio, with a control signal flat, not every such curve was filed as active; inconclusive = small, poorly fitted or top-dose-only effect, or effect the other way, or a change in a side signal; the % refers to the signal ratio; note: potency is the fitted concentration of half-maximal effect; % is set by controls: 0 for no effect and ±100 for the full control effect
#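 S3 HeLa stable clones carrying a lamin A-EGFP splicing minigene plus DsRed2 were seeded at 600 cells/well in Opti-MEM with 2% FBS, pin-dosed and incubated 48 h at 37°C. Acumen cytometry (488 nm) gave the GFP/RFP total-intensity ratio.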
# JMJD2E inh: inhibitors of human JMJD2E histone demethylase; B2RXH2; JMJD2E catalytic domain, FDH-coupled NADH fluorescence (FDH is formaldehyde dehydrogenase); Potency, µM (titrated, usually from 57.1 µM), for inactives: at the highest dose activity change, negative = inhibition, actives largely listed as inhibitors; 230,000 tested, 1.6% active; AID 2147; active = well fitted inhibition curve with a large enough effect, not every such curve was filed as active; inconclusive = small, poorly fitted or top-dose-only effect, or another doubt; inactive = no such curve, though single readings can be large or run the other way;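 note: potency is the fitted concentration of half-maximal effect; 0% = wells with enzyme and -100% = buffer wells without enzyme; nearly all actives have a fitted effect of over 50% in size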
# Sfp PPTase inh: inhibitors of Bacillus subtilis Sfp phosphopantetheinyl transferase. Q9F4F7. Biochemical Sfp PPTase activity, qHTS. Potency, µM, for the others: max response, negative = inhibition, most hits filed as inhibitors. actives 3.5% (n = 310,000). AID 1490; active means well fitted inhibition curve with a large enough effect; inconclusive means small, poorly fitted or top-dose-only effect, or another doubt; inactive means no such curve, though single readings can be large or run the other way;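 further: the enzyme is Sfp with the accession as filed and its product quenches rhodamine fluorescence; potency means the concentration at half of the fitted maximal effect; 0% = enzyme reaction without inhibitor and -100% = no enzyme wells; top concentration of the series not given in the record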
#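 Sfp 15 nM + cpd, 15 min RT; start w/ rhodamine-CoA 5 uM, BHQ-2-YbbR 12.5 uM (final); 50 mM Hepes pH 7.6, 10 mM MgCl2, 0.01% NP-40, 0.01% BSA; read 525/598 nm at 0 and 30 min.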
# miR-21 FLuc: miR-21 reporter, rising signal. HeLa miR-21 FLuc reporter, luciferase, 48 h. Potency, µM (titrated, usually from 38.3 µM), without a hit: at the top dose reporter change, positive = more light. 340,000 tested, under 10 active. AID 2288; active = well fitted rising curve with a large enough effect; inconclusive = small, poorly fitted or top-dose-only effect; inactive = no such curve, though single readings can be large or run the other way;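 also: % of control where 0% means no effect; miR-21 action dims this reporter so a rising signal means less miR-21 action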
#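 Luminescence from a firefly luciferase reporter carrying a miR-21 binding site downstream, stably expressed under a CMV promoter in HeLa cells that make miR-21 endogenously, reports miRNA modulation after 48 h compound exposure up to approximately 40uM final.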
# * marks the source's active call; other numbers are inactive results; ? = inconclusive; . = not tested or not shown; [ ] = another dose, or the depositor's remark. This is a sample that favours compounds with a hit; in the whole collection about 13% have one here. Unless noted, calls come from the whole dose curve; as a rule, active = well fitted curve in the direction sought with a large enough effect; inconclusive = small, poorly fitted or top-dose-only effect, or another doubt; inactive = no such curve, though single readings can be large; an effect the other way counts as inactive or inconclusive.
no.	structure	ALDH1A1 inh	JMJD2E inh	Sfp PPTase inh
1	COc1ccc(CNC(=O)CN2C(=O)NC(Cc3ccccc3)(c3ccccc3)C2=O)cc1OC (stereo not given)	.	.	.
2	Cc1[nH]n(-c2ccccc2)c(=O)c1N=Nc1cccc(C(=O)O)c1	.	.	-8.4%
3	Cc1ccc(N2CC(NC(=O)C3CC3)CC2=O)cc1C (stereo not given)	.	.	.
4	CCC(=O)N1CCc2cc(S(=O)(=O)CCC(=O)NCc3ccccc3Cl)ccc21	.	.	.
5	O=C(Nc1ccccc1N1CCCCC1)c1ccc(-c2cccc(Cl)c2)o1	7.2%	0.9%	-20.6%
6	CC(=O)N1CCN(C(=S)c2ccc(-c3ccc(Cl)cc3)o2)CC1	0.0%	3.0%	31.6µM*
7	S=C(c1ccc(-c2cccc(Cl)c2)o1)N1CCCCC1	14.1µM*	-6.5%	-42.9%
8	S=C(c1ccc(-c2cccc(Cl)c2)o1)N1CCOCC1	11.2µM*	-12.3%	20µM*
9	Fc1ccc(-c2noc3ncnc(NC4CCCCC4)c23)cc1	.	.	.
10	O=C(NC1CC1)C1CCN(C2CCN(C(=O)/C=C/c3ccc(F)cc3)CC2)CC1	-0.3%	-7.4%	6.3%
11	O=[N+]([O-])c1ccc(C[n+]2cccc(O)c2)cc1	.	.	.
12	O=[N+]([O-])c1ccc(C[n+]2cccc3ccc4cccnc4c32)cc1	?	-4.0%	14.1µM*

no.	G9a block	Lamin A splicing	miR-21 FLuc
1	8.91µM*	.	.
2	.	.	-45.5%
3	-5.4%[59 µM]	?	-1.4%
4	-0.5%[59 µM]	.	0.9%
5	-1.0%[59 µM]	?	1.0%
6	3.98µM*	7.9%	-30.3%
7	11.2µM*	-3.0%[46 µM]	-63.9%
8	?	7.0%	-61.1%
9	-0.7%[59 µM]	-0.4%[46 µM]	0.9%
10	5.9%	.	-2.3%
11	-7.7%[2.33 µM]	.	.
12	.	.	25.5%

# Continued; the last three above are carried over.
no.	structure	ALDH1A1 inh	JMJD2E inh	Sfp PPTase inh
10	O=C(NC1CC1)C1CCN(C2CCN(C(=O)/C=C/c3ccc(F)cc3)CC2)CC1	-0.3%	-7.4%	6.3%
11	O=[N+]([O-])c1ccc(C[n+]2cccc(O)c2)cc1	.	.	.
12	O=[N+]([O-])c1ccc(C[n+]2cccc3ccc4cccnc4c32)cc1	?	-4.0%	14.1µM*
13	O=[N+]([O-])c1ccc(C[n+]2cccc3ccccc32)cc1	-4.5%	-14.6%	-3.1%
14	CCNc1nc(OC)nc(SCC(=O)Nc2ccccc2)n1	1.4%	-5.5%	-6.6%
15	FC(F)(F)c1ccc(Cl)c(N/N=C/c2ccc(N3CCOCC3)s2)c1	4.47µM*	?	-6.3%
16	O=C(N/N=C/c1ccc(N2CCOCC2)s1)c1ccccc1Cl	15.8µM*	-16.5%	-30.0%
17	c1ccc(N(c2ccccc2)c2nc(N3CCOCC3)nc(N3CCOCC3)n2)cc1	9.3%	-1.1%	0.6%
18	O=C(CN1CCOCC1)Nc1cc(C(F)(F)F)ccc1Cl	14.2%	-3.7%	1.4%
19	C(=N\N(c1ccccc1)c1ccccc1)/c1ccc(N2CCOCC2)s1	?	-10.0%	-19.6%
20	CCOC(=O)N/N=C/c1ccc(N2CCOCC2)s1	?	?	-20.9%
21	NC(N)=NC[C@H](N)C(=O)O	2.9%[13.5 µM]	.	.
22	Cc1cccc(Cl)c1NNC(=O)Nc1c([N+](=O)[O-])c(C)nn1C	.	-11.9%	11.6%
23	O=C(Nc1sc2c(c1C(=O)Nc1ccccc1)CCC2)c1ccc(Br)cc1	.	.	.
24	O=C1Nc2ccccc2/C1=N\c1sc2c(c1C(=O)Nc1ccccc1)CCCC2	25.1µM*	?	4.0%

no.	G9a block	Lamin A splicing	miR-21 FLuc
10	5.9%	.	-2.3%
11	-7.7%[2.33 µM]	.	.
12	.	.	25.5%
13	14.1µM*	?	5.1%
14	-20.7%	-5.3%[46 µM]	12.2%
15	3.98µM*	-6.9%	-9.1%
16	?	?	-33.0%
17	?	4.3%	-0.9%
18	28.0%	.	4.4%
19	12.6µM*	-2.7%	-2.0%
20	39.8µM*	-22.1%	-28.2%
21	.	.	.
22	15.8µM*	.	2.7%
23	42.4%[59 µM]	.	-7.2%
24	12.6µM*	-6.9%	-13.0%

# Next section
no.	structure	ALDH1A1 inh	JMJD2E inh	Sfp PPTase inh
25	CCN(C(=O)Cn1c(=O)oc2cc(Cl)ccc21)c1cccc(C(F)(F)F)c1	.	.	.
26	Cc1ccc2c(c1)c1c(n2C)C(C(N)=O)CCC1 (stereo not given)	-0.2%	7.6%	-5.1%
27	Cc1ccc2c(c1)c1c3n2CCN(C(=O)CCl)C3CCC1 (stereo not given)	.	.	-9.5%
28	CN(CC1CCCN(CCc2ccc(Cl)cc2)C1)C(=O)C(=O)c1ccco1 (stereo not given)	.	.	1.3%
29	CC(=O)Nc1ccc(SCCN2CCN(CCc3ccccc3)CCC2=O)cc1	.	.	50.1µM*
30	COCCN1C(=O)C(=O)/C(=C(/O)c2ccc(S(=O)(=O)N3CCOCC3)cc2)C1c1cccc([N+](=O)[O-])c1 (stereo not given)	.	.	7.9%
31	CC1(C)CC(=O)C(=Cc2cn(-c3ccccc3)nc2-c2ccc(Cl)cc2)C(=O)C1	?	2.1%	89.1µM*
32	CC1(C)CC(=O)C(=Cc2cn(CCC#N)nc2-c2ccc(F)cc2)C(=O)C1	-1.2%	0.4%	56.2µM*
33	N#CCCn1cc(/C=N/O)c(-c2ccc(F)cc2)n1	18.7%	0.5%	11.5%
34	CC1(C)CC(=O)C(=Cc2cn(CCC#N)nc2-c2ccc(Cl)cc2)C(=O)C1	-6.4%	-3.0%	79.4µM*
35	O=C(NCCO)c1cc2cc(Cl)cc(Cl)c2oc1=O	?	?	35.5µM*
36	COCCNC(=O)c1cc2cc(Cl)cc(Cl)c2oc1=O	25.1µM*	-18.3%	-1.2%

no.	G9a block	Lamin A splicing	miR-21 FLuc
25	1.8%[59 µM]	.	4.3%
26	39.8µM*	-8.2%	4.1%
27	?	.	19.6%
28	9.7%[0.0925 µM]	.	1.4%
29	.	.	.
30	?	.	2.3%
31	3.5%[0.501 µM]	-8.1%	-10.0%
32	10µM*	-15.4%	-1.5%
33	-10.2%	-5.4%	-4.3%
34	?	-10.6%	-2.8%
35	3.16µM*	-8.7%[46 µM]	-1.4%
36	44.7µM*	13.3%[46 µM]	-0.5%

# (further entries)
no.	structure	ALDH1A1 inh	JMJD2E inh	Sfp PPTase inh
37	O=C(O)c1cc2cc(Cl)cc(Cl)c2oc1=O	-1.8%	-19.8%	-15.6%
38	Cc1ccc(S(=O)(=O)N2CCN(C(=O)C3CSC4(C)CCC(=O)N34)CC2)cc1C (stereo not given)	.	.	.
39	CCCNC(=S)N1CCN(C)CC1	-10.8%	?	-22.5%
40	CCOC(=O)COc1cc(=O)n(CC)c2ccccc12	-4.3%	9.9%	5.5%
41	CCn1c(=O)cc(OCC(=O)N2CCN(C(=O)c3ccco3)CC2)c2ccccc21	17.8µM*	-8.3%	10.2%
42	CCn1c(=O)cc(OCC(=O)N(C)C2CCCCC2)c2ccccc21	20µM*	-1.1%	3.5%
43	CN(C(=O)COc1cc(=O)n(C)c2ccccc12)c1ccc(Br)cc1	22.4µM*	-12.9%	-10.4%
44	Cc1ccc2c(c1)N(C(=O)N1CCC(C(=O)NCCC3=CCCCC3)CC1)CC(C)O2 (stereo not given)	.	.	.
45	Cc1nc2ccc(NC3=NCCCCC3)cc2s1	?	-12.2%	?
46	O=C(Nc1ccc(Cl)cc1F)C1CCN(S(=O)(=O)c2cccc3nonc23)CC1	.	.	7.7%
47	CCN1C/C(=C\c2cccc([N+](=O)[O-])c2)C(=O)/C(=C/c2cccc([N+](=O)[O-])c2)C1	?	-4.9%	-1.0%
48	COc1ccc2oc(-c3ccc(C)c(NC(=O)c4ccc(N5CCCCC5)c([N+](=O)[O-])c4)c3)nc2c1	.	.	.
49	C=CCSc1nc(-c2ccc3c(c2)OCO3)cc(C(F)(F)F)c1C#N	?	?	17.8µM*

no.	G9a block	Lamin A splicing	miR-21 FLuc
37	56.2µM*	9.8%	2.8%
38	6.5%	.	.
39	10µM*	-2.8%	-9.9%
40	?	-1.9%	-0.6%
41	6.2%[12.7 µM]	-17.6%	6.2%
42	-18.9%	1.4%	4.7%
43	-48.0%[59 µM]	-22.6%	-3.1%
44	-8.8%[59 µM]	-1.0%[46 µM]	-38.0%
45	5.62µM*	0.8%	3.0%
46	-3.5%	.	4.2%
47	25.1µM*	0.9%	0.2%
48	2.9%[59 µM]	.	-8.4%
49	.	9.2%	1.1%
